Assay results as given in patent US20100292343A1, “USE OF A DIALKYLKETONE PEROXIDE AS BIOCIDAL, STERILIZING, ANTISEPTIC, DISINFECTING AND ANTI-PARASITIC AGENT” (published 2010).

Columns and labels:
[1] = test system: Bacillus subtilis spores ATCC 19659; test: Sporicidal activity, carrier disc ASTM E-2197-02
[2] = test system: Vero cells; test: Control of cytotoxicity of the disinfectant on cell monolayer; conditions: virucidal assay control

Substance: methyl ethyl ketone peroxide
- sporicidal activity (conclusion) ([1]; 20% and 25% during 15): not absolute although it significantly reduces the number of viable spores
- sporicidal activity (conclusion) ([1]; 20% and 25% during 30 minutes): absolute sporicidal activity
- mean number of colony forming units per ml after exposure of 10 test carrier disks ([1]; peroxide 15%, exposure time 5 min): 7.2 × 10^2 CFU/ml
- mean number of colony forming units per ml after exposure of 10 test carrier disks ([1]; peroxide 15%, exposure time 15 min): 4.3 × 10^2 CFU/ml
- mean number of colony forming units per ml after exposure of 10 test carrier disks ([1]; peroxide 15%, exposure time 30 min): 1.8 × 10^2 CFU/ml
- mean number of colony forming units per ml after exposure of 10 test carrier disks ([1]; peroxide 20%, exposure time 5 min): 7.6 × 10^2 CFU/ml
- mean number of colony forming units per ml after exposure of 10 test carrier disks ([1]; peroxide 20%, exposure time 15 min): 0.5 × 10^2 CFU/ml
- mean number of colony forming units per ml after exposure of 10 test carrier disks ([1]; peroxide 20%, exposure time 30 min): 0 CFU/ml
- mean number of colony forming units per ml after exposure of 10 test carrier disks ([1]; peroxide 25%, exposure time 5 min): 5.0 × 10^2 CFU/ml
- mean number of colony forming units per ml after exposure of 10 test carrier disks ([1]; peroxide 25%, exposure time 15 min): 0.3 × 10^2 CFU/ml
- mean number of colony forming units per ml after exposure of 10 test carrier disks ([1]; peroxide 25%, exposure time 30 min): 0 CFU/ml
- Control of cytotoxicity (CTX) [2]: Absence of CTX
